Assay results as given in US20240261333A1, “NOVEL TARGETS FOR ENHANCING ANTI-TUMOR IMMUNITY” (THE BROAD INSTITUTE, INC., priority 2021, published 2024).

What was measured:
[1] = biological target: ACTA2 (human) (UniProt P62736); assay: IgG control IP from lysate of cells overexpressing N-FLAG B3GNT2, then mass spectrometry
[2] = biological target: ACTG1 (human) (UniProt P63261); assay: co-IP, IgG control, lysate of cells with C-FLAG B3GNT2; mass spectrometry
[3] = biological target: ACTA2 (human) (UniProt P62736); assay: IgG control IP from lysate of cells overexpressing C-FLAG B3GNT2, then mass spectrometry
[4] = biological target: ACTG1 (human) (UniProt P63261); assay: co-IP, IgG control, lysate of cells with N-FLAG B3GNT2; mass spectrometry
[5] = biological target: TM9SF3 (UniProt Q9HD45); assay: co-IP, IgG control, lysate of N-FLAG B3GNT2 cells, mass spectrometry
[6] = biological target: RBMX (UniProt P38159); assay: co-IP, IgG control, lysate of C-FLAG B3GNT2 cells, mass spectrometry
[7] = biological target: PSMA1 (UniProt P25786); assay: as above
[8] = biological target: SEC16A (UniProt O15027); assay: as above
[9] = biological target: TM9SF3 (UniProt Q9HD45); assay: as above
[10] = biological target: PPIB (UniProt P23284); assay: as above
[11] = biological target: SERPINE2 (UniProt P07093); assay: as above
[12] = biological target: RPL29 (UniProt P47914); assay: as above
[13] = biological target: SMN1 (UniProt Q16637); assay: as above
[14] = biological target: TRIM28 (UniProt Q13263); assay: as above
[15] = biological target: OS9 (UniProt Q13438); assay: as above
[16] = biological target: NCL (UniProt P19338); assay: as above
[17] = biological target: CEP170 (UniProt Q5SW79); assay: as above
[18] = biological target: ABCF1 (UniProt Q8NE71); assay: as above
[19] = biological target: PSMA4 (UniProt P25789); assay: as above
[20] = biological target: MAP1B (UniProt P46821); assay: as above
[21] = biological target: ARPC2 (UniProt O15144); assay: as above
[22] = biological target: CNP (UniProt P09543); assay: as above
[23] = biological target: LAMB1 (UniProt P07942); assay: as above
[24] = biological target: DPM1 (UniProt O60762); assay: as above
[25] = biological target: LRPPRC (UniProt P42704); assay: as above
[26] = biological target: HSPA5 (UniProt P11021); assay: as above
[27] = biological target: RPL18A (UniProt Q02543); assay: as above
[28] = biological target: MYO1D (UniProt O94832); assay: as above
[29] = biological target: HLA-A (UniProt P04439); assay: as above
[30] = biological target: PRR4 (UniProt Q16378); assay: as above
[31] = biological target: LRP2 (UniProt P98164); assay: as above
[32] = biological target: SLC25A10 (UniProt Q9UBX3); assay: as above
[33] = biological target: CSPG4 (UniProt Q6UVK1); assay: as above
[34] = biological target: LOXL4 (UniProt Q96JB6); assay: as above
[35] = biological target: ALDOA (UniProt P04075); assay: as above
[36] = biological target: GNAS (UniProt Q5JWF2); assay: as above
[37] = biological target: PGK1 (UniProt P00558); assay: as above
[38] = biological target: SLC25A3 (UniProt Q00325); assay: as above
[39] = biological target: RAB1B (UniProt Q9H0U4); assay: as above

IgG control (Millipore Sigma 12-371) (antibody)
103: co-IP mass spectrometry count [4]
2: co-IP/MS count [13]
77: co-IP mass spectrometry count (N-term IgG) [1]
63: co-IP mass spectrometry count (C-term IgG) [3]
0: co-IP/MS count [5] | co-IP/MS count [6] | co-IP/MS count [7] | co-IP/MS count [8] | co-IP/MS count [9] | co-IP/MS count [10] | co-IP/MS count [11] | co-IP/MS count [12] | co-IP/MS count [14] | co-IP/MS count [15] | co-IP/MS count [16] | co-IP/MS count [17] | co-IP/MS count [18] | co-IP/MS count [19] | co-IP/MS count [20] | co-IP/MS count [21] | co-IP/MS count [22] | co-IP/MS count [23] | co-IP/MS count [24] | co-IP/MS count [25] | co-IP/MS count [27] | co-IP/MS count [28] | co-IP/MS count [29] | co-IP/MS count [30] | co-IP/MS count [31] | co-IP/MS count [32] | co-IP/MS count [33] | co-IP/MS count [34] | co-IP/MS count [35] | co-IP/MS count [36] | co-IP/MS count [37] | co-IP/MS count [38] | co-IP/MS count [39]
71: co-IP mass spectrometry count [2]
12: co-IP/MS count [26]
